# Source: PubChem
# Most compounds without a hit are left out; they make up all but 2.3% or so of the library.
# Nrf2 ARE act – activates Nrf2 signaling | 410,000 tested, 0.31% active | Potency, µM (top dose mostly 46.1 µM), for the others: at the top dose activation, usual class: activators | AID 624171 | AREc32 ARE-luciferase reporter (MCF7-derived line), luminescence, 24 h; also: potency is read from the fitted curve at half-maximal effect; % of control where 0% means no effect; nearly all actives have a fitted effect of over 65% in size
#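 Steps: seed AREc32_Fluc cells (1000/well, 5% FBS OPTI-MEM); incubate overnight at 37 deg C; add 23 nL compound; incubate 24 hr; add Steady-Glo; hold 30 min RT; read luminescence.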
# Glioma ERSR ind – induces the endoplasmic reticulum stress response in human glioma cells | U87-MG GRP78 promoter luciferase reporter, 16 h | Potency, µM, inactives show at the highest dose activation, usual class: activators | 420,000 tested, 0.02% active | AID 602332; also: potency is read from the fitted curve at half-maximal effect; series mostly up to about 76 µM; % of control where 0% means no effect; nearly all actives have a fitted effect of over 35% in size
#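 Stably transfected U87-MG glioma cells carrying a GRP78-based luciferase sensor; 16 h compound incubation. Luminescence end-point read 10 min after Bright-Glo addition at room temperature.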
# miR-21 reporter – miR-21 reporter, rising signal | Potency, µM (highest dose often 38.3 µM), for inactives: at the highest dose reporter change, positive = more light | 340,000 tested, under 10 active | HeLa miR-21 FLuc reporter, luciferase, 48 h; active = well fitted rising curve with a large enough effect; inconclusive = small, poorly fitted or top-dose-only effect; inactive = no such curve, though single readings can be large or run the other way;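 note: % of control where 0% means no effect; miR-21 action dims this reporter so a rising signal means less miR-21 action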
#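 Luminescence from a firefly luciferase reporter carrying a miR-21 binding site downstream, stably expressed under a CMV promoter in HeLa cells that make miR-21 endogenously, reports miRNA modulation after 48 h compound exposure up to approximately 40uM final.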
# Nrf2 inh – inhibitors of Nrf2 signaling | A549 ARE-Fluc reporter, luciferase luminescence, 18-24 h | Potency, µM (doses to about 46 µM), for the others: at the highest dose activity change, negative = inhibition, actives largely listed as inhibitors | 360,000 tested, 2.1% active | AID 504444; also: potency is read from the fitted curve at half-maximal effect; % is scaled to controls: 0 for no effect and ±100 for the full control effect; nearly all actives have a fitted effect of over 60% in size
#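 Nrf2 function is reported as luminescence of an ARE-controlled luciferase in A549 cells. Compounds were tested at several concentrations, and a CellTiter-Fluor read on the same wells flagged cytotoxicity.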
# Mito fusion act – mitochondrial division inhibition or fusion activation; Potency, µM (series often up to 46.1 µM), without a hit: top-dose growth rescue (activation), hits mostly activators; 320,000 tested, 0.23% active; AID 485298; S. cerevisiae fusion-defective mutant growth rescue, CellTiterGlo 48 h; also: potency is read from the fitted curve at half-maximal effect; % of control where 0% means no effect; nearly all actives have a fitted effect of over 45% in size
#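 Temperature-sensitive fusion-defective S. cerevisiae (e.g. fzo1-1, mgm1-5) were grown with compound in YPEG medium (3% ethanol, 3% glycerol) for 48 hours at 37C. Growth rescue was measured as viability by CellTiterGlo luminescence after 10 minutes at ambient.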
# A549 tox – counter-screen for Nrf2 inhibitors: cytotoxicity in A549 cells. A549 ARE-Fluc cells, CellTiter-Fluor viability, 18-24 h. Potency, µM (top dose mostly 46 µM), inactives show at the highest dose activity change, negative = cytotoxicity, hits mostly inhibitors. 390,000 tested, 0.16% active; also: potency is read from the fitted curve at half-maximal effect; % is scaled to controls: 0 for no effect and ±100 for the full control effect
#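 A549 ARE-Fluc cells in 5% FBS OPTI-MEM, 5000 cells/well, rested 2 h then exposed to compounds in concentration-response for 18-24 h at 37 °C. Viability by CellTiter-Fluor fluorescence (Ex 405/Em 525) after 30 min; luciferase luminescence (BugLite, 15 min, RT) read afterwards.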
# The depositor's hits bear a star; ? = inconclusive; / = not tested or not shown; [ ] = another dose, or the depositor's remark. Unless noted, calls follow the shape of the dose curve; as a rule, active = well fitted curve in the direction sought with a large enough effect; inconclusive = small, poorly fitted or top-dose-only effect, or another doubt; inactive = no such curve, though single readings can be large; an effect the other way counts as inactive or inconclusive.
# Preview:
item	Molecule	Nrf2 ARE act	Glioma ERSR ind	miR-21 reporter
1	Cc1cc(O)c(C(=O)/C=C/c2ccccc2O)c(=O)o1	15.4%	4.6%	-8.0%
2	O=C(/C=C\c1cccs1)c1c(O)ccc2ccc(=O)oc12	11.2µM*	4.4%	3.7%
3	O=C(/C=C/c1cccs1)c1ccc(Br)cc1	?	-0.3%	-16.6%
4	Cc1cc(O)c(C(=O)/C=C/c2cccc([N+](=O)[O-])c2)c(=O)o1	22.4µM*	-2.8%	-5.3%

item	Nrf2 inh	Mito fusion act	A549 tox
1	1.0%	-7.3%	-10.2%
2	1.2%	?	-1.4%
3	-1.9%	-1.3%	-8.8%
4	4.8%	2.9%	2.5%

# Main list (from the top)
item	Molecule	Nrf2 ARE act	Glioma ERSR ind	miR-21 reporter
1	Cc1cc(O)c(C(=O)/C=C/c2ccccc2O)c(=O)o1	15.4%	4.6%	-8.0%
2	O=C(/C=C\c1cccs1)c1c(O)ccc2ccc(=O)oc12	11.2µM*	4.4%	3.7%
3	O=C(/C=C/c1cccs1)c1ccc(Br)cc1	?	-0.3%	-16.6%
4	Cc1cc(O)c(C(=O)/C=C/c2cccc([N+](=O)[O-])c2)c(=O)o1	22.4µM*	-2.8%	-5.3%
5	O=C(/C=C\Nc1cccc(F)c1)c1cccs1	3.98µM*	-4.4%	-44.0%
6	Cc1ccc(N(C(=O)c2csnn2)C(C(=O)NC2CCCCC2)c2ccncc2)cc1 (configuration not stated)	0.1%	3.9%	-4.3%
7	C=CCOC(=O)C1=C(C)NC(SCC(=O)NC(=O)OCC)=C(C#N)C1c1cccnc1 (configuration not stated)	0.3%	-4.6%	-12.5%
8	CCCCn1nnnc1C1(C)CCC(=O)N1CCCn1ccnc1 (configuration not stated)	7.3%	/	/

item	Nrf2 inh	Mito fusion act	A549 tox
1	1.0%	-7.3%	-10.2%
2	1.2%	?	-1.4%
3	-1.9%	-1.3%	-8.8%
4	4.8%	2.9%	2.5%
5	?	5.3%	-6.4%
6	5.4%	2.3%	0.5%
7	5.6%	2.2%	-2.2%
8	/	/	/

# More entries:
item	Molecule	Nrf2 ARE act	Glioma ERSR ind	miR-21 reporter
9	CNC(=O)c1cccc(NC(=O)c2cc(-c3ccccc3)nc3c2cnn3C(C)C)c1	-0.1%	-12.2%	/
10	CC(C)(C)C(=O)NC(=S)NNC(=O)c1ccc(-c2ccccc2)cc1	-1.7%	?	17.6%
11	CC(C)(C)C(=O)NC(=S)NNC(=O)c1ccc(Cl)cc1Cl	0.1%	?	8.7%
12	COC(=O)NNC(=O)c1ccc(Cl)cc1Cl	-0.4%	-2.7%	-8.2%
13	Cc1cccc(C(=O)N2CCCCC2CCN2CCCCC2)c1 (configuration not stated)	-0.9%	-2.0%	-0.7%
14	O=C1NC[C@H](c2ccccc2)OC(=O)[C@H](Cc2ccc(F)cc2)C/C=C\C[C@H]1CC(=O)N(CCO)Cc1ccccc1	-6.2%	-5.4%	/
15	OCCCCC#Cc1c(-c2ccsc2)sc2ccccc12	?	-1.9%	0.6%
16	OCCC#Cc1c(-c2ccsc2)sc2ccccc12	2.51µM*	-0.7%	1.1%

item	Nrf2 inh	Mito fusion act	A549 tox
9	20.6µM*	-1.2%	-19.8%
10	2.91µM*	-31.1%	?
11	8.2µM*	-1.1%	?
12	7.3%	-11.6%	-11.3%
13	3.4%	/	-11.2%
14	-19.1%	/	-17.2%
15	0.2%	-25.5%	-3.0%
16	6.7%	12.2%	4.6%

# Additional entries follow:
item	Molecule	Nrf2 ARE act	Glioma ERSR ind	miR-21 reporter
17	O=C(CCS(=O)(=O)c1ccc(Cl)cc1)Nc1nc(-c2ccncc2)cs1	11.2µM*	-5.5%	21.7%
18	O=C(CCS(=O)(=O)c1ccc(Cl)cc1)Nc1nc(-c2cccnc2)cs1	3.5%	1.1%	-0.2%
19	Cc1ccc(S(=O)(=O)CCC(=O)Nc2nc(-c3ccccn3)cs2)cc1	14.1µM*	-5.4%	/
20	Cc1ccc(Sc2c(C#N)c(-c3ccccc3)nn2C)cc1	0.1%	-0.8%	7.3%
21	N=C1C(c2nc3ccccc3[nH]2)=C(O)CN1C1CCCCC1	0.8%	-0.5%	-52.5%
22	O=C(Nc1ncc(Cc2ccccc2Cl)s1)c1ccc([N+](=O)[O-])cc1	0.2%	2.7%	-9.1%
23	O=C(Nc1ccc2oc(=O)ccc2c1)c1ccc(-c2ccccc2[N+](=O)[O-])o1	4.1%	-10.3%	0.7%
24	O=C(Nc1ccc2oc(=O)ccc2c1)c1ccc(-c2cccc([N+](=O)[O-])c2)o1	4.4%	-0.5%	-1.7%

item	Nrf2 inh	Mito fusion act	A549 tox
17	5.0%	12.4%	2.2%
18	4.5%	3.6%	0.5%
19	20.6µM*	3.3%	-12.0%
20	5.8µM*	-1.2%	-27.7%[1.84 µM]
21	?	2.3%	2.6%
22	-13.5%	-1.1%	3.9%
23	?	0.8%	-2.8%
24	23.1µM*	-1.8%	?

# (list continues)
item	Molecule	Nrf2 ARE act	Glioma ERSR ind	miR-21 reporter
25	O=C(Nc1ncc(Cc2ccccc2Cl)s1)c1ccc(-c2cccc([N+](=O)[O-])c2)o1	-0.6%	-4.6%	-6.9%
26	O=C(Nc1ccc2oc(=O)ccc2c1)c1ccc(-c2cccc(Cl)c2)o1	0.0%	-1.7%	-12.5%
27	O=C(Nc1ccc2oc(=O)ccc2c1)c1ccc(-c2ccc(Cl)cc2)o1	0.2%	-2.1%	-2.5%
28	O=C(NN1CCOCC1)c1cccc(Cl)c1	0.1%	-0.5%	0.2%
29	Cc1nn(-c2ccc(F)cc2)c(C)c1CN1CCN(CCc2ccccc2)C(CCO)C1 (configuration not stated)	0.4%	-0.1%	-2.0%
30	O=C1C=CC(=O)c2c(O)c(CO)c(CO)c(O)c21	8.4%	5.1%	/
31	CC(C)(C)OC(=O)N1CCC(c2nnc(SCc3ccccc3)o2)CC1	8.9%	-8.5%	-7.0%
32	O=C(c1ccc(Cl)c(Cl)c1)N1CCC(=O)N(C(COCc2cccc(Cl)c2)Cc2ccccc2)CC1 (configuration not stated)	-4.2%	-3.1%	11.4%

item	Nrf2 inh	Mito fusion act	A549 tox
25	16.4µM*	4.7%	11.3%
26	18.4µM*	5.1%	-8.9%
27	-4.9%	-1.2%	10.0%
28	-18.4%	0.6%	-0.2%
29	0.3%	-8.2%	1.4%
30	23.1µM*	/	16.4µM*
31	11.6µM*	/	-12.8%
32	?	35.5µM*	?

# Next compounds.
item	Molecule	Nrf2 ARE act	Glioma ERSR ind	miR-21 reporter
33	Cc1cccc(COCC(CC(C)C)N2CCN(C(=O)c3ccc(C(C)(C)C)cc3)CCC2=O)c1 (configuration not stated)	-5.6%	-3.9%	0.7%
34	O=C(c1cccc(Cl)c1)N1CCC(=O)N(C(COCc2cccc(Cl)c2)Cc2ccccc2)CC1 (configuration not stated)	0.0%	2.0%	2.9%
35	Cc1ccc2nc(-c3ccccc3O)c(Nc3ccccc3C)n2c1	7.2%	-4.2%	-0.9%
36	C=CS(=O)(=O)c1ccc(Oc2ccc(S(=O)(=O)C=C)cc2)cc1	-2.0%	-13.8%	?
37	CCN(CC)c1ccc2cc(NC(=O)CCC(=O)O)c(=O)oc2c1	-2.4%	-13.6%	?
38	O=C(NCc1cccs1)c1cc(-c2ccccc2)nn1CC1CC(c2cccc([N+](=O)[O-])c2)=NO1 (configuration not stated)	0.2%	-5.6%	/
39	CCn1cnc2c(Nc3cc(F)cc(F)c3)nc(C#N)nc21	6.6%	4.5%	/
40	N#Cc1nc(Nc2cc(F)cc(F)c2)c2ncn(CCCN3CCCC3)c2n1	/	/	/
41	CC(=O)N1c2ccc(S(=O)(=O)N3CCC(C(=O)N4CCCC(C)C4)CC3)cc2CC1C (configuration not stated)	-0.1%	0.2%	15.5%

item	Nrf2 inh	Mito fusion act	A549 tox
33	23.1µM*	-9.0%	?
34	1.6%	?	-11.8%
35	-3.3%	/	1.0%
36	18.4µM*	-5.1%	?
37	11.6µM*	-1.3%	?
38	?	/	-0.3%
39	?	3.6%	-16.9%
40	5.9%	/	2.06µM*
41	16.4µM*	-1.9%	-8.1%
